One compound from patent US20070032448A1, “Sugar modified nucleosides as viral replication inhibitors” (priority 2002, published 2007) can be followed below.

The nature of the data set: Pharmacokinetics, intravenous and oral dosing. To be noted: in vivo; oral vs intravenous dosing.

Usually bioavailability stands for the share of a dose that reaches the circulation, judged against a reference dose that is usually intravenous. Lower therefore signals little systemic uptake. Turning to `NC(=O)c1ncn([C@@H]2O[C@H](CO)[C@@H](O)[C@H]2O)n1` [Ribavirin, reference compound], the bioavailability stood at 27.1%.
